From patent US5922728A, “Phenylsubstituted 4-azasteroid fluoroderivatives” (Pharmacia & Upjohn, S.p.A., priority 1995, dated 1999)
pIC50: −log10 of the molar value.

Chains of the proteins cited; added tags and fusions are not shown. Lines headed by an entry give the natural chain unless they say otherwise; changes in a name come on top.
UniProt P31213: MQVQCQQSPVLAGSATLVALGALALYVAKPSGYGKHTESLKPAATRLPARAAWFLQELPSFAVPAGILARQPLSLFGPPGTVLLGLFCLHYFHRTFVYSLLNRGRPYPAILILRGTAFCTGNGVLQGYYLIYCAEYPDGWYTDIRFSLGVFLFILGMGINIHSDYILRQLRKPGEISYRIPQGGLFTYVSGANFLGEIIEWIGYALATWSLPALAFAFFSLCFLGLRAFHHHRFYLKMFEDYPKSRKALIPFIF

Target: human 5α-reductase (Homo sapiens, UniProt P31213)
Assay: biochemical

pIC50: 7.55
SMILES: C[C@]12C=CC(=O)N[C@@H]1CC[C@@H]1[C@@H]2CC[C@]2(C)[C@@H](C(=O)NC(c3ccccc3)(C(F)(F)F)C(F)(F)F)CC[C@@H]12 [compound 1, N-(1,1,1,3,3,3-hexafluorophenylpropyl)-3-oxo-4-aza-5α-androst-1-ene-17β-carboxamide]
